# Experimental data: PubChem BioAssay (Tox21)
# Amino acid sequences for entries named in this document (tags omitted). A change or cut given only in a name is not applied to a line headed by its entry.
# UniProt P03372, whole entry, looked up: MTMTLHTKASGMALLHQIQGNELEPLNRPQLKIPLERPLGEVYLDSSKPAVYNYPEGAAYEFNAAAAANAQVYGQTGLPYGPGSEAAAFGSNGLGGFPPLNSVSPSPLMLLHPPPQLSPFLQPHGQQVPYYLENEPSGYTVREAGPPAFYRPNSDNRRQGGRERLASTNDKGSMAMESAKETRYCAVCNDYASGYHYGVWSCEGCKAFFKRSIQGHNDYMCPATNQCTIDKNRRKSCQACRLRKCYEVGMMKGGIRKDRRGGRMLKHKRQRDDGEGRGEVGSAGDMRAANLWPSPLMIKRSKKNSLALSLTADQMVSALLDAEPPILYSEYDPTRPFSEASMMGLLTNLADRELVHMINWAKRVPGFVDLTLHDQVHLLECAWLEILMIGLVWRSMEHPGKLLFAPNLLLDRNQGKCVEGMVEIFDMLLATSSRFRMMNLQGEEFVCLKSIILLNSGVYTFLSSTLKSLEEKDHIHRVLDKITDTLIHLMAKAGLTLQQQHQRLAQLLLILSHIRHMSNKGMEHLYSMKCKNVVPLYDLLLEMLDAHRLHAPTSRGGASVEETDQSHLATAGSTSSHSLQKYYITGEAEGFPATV
# UniProt P34981: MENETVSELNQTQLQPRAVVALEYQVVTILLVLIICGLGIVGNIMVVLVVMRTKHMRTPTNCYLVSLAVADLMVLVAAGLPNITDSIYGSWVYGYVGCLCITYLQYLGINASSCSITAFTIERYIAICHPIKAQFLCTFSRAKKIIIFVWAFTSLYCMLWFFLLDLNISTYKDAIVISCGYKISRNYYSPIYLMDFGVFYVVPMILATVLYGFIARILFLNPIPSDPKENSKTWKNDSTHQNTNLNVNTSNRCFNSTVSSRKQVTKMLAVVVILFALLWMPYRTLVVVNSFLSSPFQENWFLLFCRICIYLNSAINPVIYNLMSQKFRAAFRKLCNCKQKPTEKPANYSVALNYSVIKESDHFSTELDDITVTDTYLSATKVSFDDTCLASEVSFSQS
# UniProt Q92731, whole entry, looked up: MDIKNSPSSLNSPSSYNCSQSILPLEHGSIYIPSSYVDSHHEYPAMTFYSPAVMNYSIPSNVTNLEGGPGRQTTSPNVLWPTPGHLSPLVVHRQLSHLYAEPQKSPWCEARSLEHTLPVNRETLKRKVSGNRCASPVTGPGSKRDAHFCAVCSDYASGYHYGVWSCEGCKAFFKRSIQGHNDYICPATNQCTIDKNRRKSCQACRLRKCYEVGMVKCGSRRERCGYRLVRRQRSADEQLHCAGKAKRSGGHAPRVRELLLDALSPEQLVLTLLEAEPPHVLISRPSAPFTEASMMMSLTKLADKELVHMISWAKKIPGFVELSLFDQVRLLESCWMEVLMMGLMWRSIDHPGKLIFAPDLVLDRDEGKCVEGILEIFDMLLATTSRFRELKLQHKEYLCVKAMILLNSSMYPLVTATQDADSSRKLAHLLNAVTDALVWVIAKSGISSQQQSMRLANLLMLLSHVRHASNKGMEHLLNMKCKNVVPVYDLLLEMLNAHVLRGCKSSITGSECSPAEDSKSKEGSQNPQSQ
# UniProt Q96RI1: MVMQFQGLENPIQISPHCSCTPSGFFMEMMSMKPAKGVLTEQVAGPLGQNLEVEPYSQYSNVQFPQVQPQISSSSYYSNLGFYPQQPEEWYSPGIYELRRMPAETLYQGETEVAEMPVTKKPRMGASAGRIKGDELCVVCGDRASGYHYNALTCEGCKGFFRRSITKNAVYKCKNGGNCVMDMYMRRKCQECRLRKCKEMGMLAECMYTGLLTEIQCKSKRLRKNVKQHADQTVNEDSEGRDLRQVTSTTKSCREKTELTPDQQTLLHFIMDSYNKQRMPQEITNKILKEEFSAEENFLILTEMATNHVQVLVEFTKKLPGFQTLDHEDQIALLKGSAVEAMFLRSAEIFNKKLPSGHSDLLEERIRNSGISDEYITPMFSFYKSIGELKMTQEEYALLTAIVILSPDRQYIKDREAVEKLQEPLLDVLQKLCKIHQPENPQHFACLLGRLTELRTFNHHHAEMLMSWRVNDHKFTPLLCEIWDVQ
# UniProt P11511: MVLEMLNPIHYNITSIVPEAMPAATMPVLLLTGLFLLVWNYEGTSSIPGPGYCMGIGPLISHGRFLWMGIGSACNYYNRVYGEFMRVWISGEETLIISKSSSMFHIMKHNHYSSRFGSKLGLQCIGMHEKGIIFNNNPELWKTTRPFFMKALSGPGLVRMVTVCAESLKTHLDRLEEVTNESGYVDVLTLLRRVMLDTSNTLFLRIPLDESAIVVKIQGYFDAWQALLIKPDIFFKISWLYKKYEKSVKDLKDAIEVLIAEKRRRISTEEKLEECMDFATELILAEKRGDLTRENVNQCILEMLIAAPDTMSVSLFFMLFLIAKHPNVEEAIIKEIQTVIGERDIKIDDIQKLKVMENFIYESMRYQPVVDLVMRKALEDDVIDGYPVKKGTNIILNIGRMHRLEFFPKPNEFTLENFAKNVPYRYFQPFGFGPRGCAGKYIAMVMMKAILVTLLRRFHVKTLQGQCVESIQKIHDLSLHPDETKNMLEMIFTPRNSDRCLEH
# UniProt P35869: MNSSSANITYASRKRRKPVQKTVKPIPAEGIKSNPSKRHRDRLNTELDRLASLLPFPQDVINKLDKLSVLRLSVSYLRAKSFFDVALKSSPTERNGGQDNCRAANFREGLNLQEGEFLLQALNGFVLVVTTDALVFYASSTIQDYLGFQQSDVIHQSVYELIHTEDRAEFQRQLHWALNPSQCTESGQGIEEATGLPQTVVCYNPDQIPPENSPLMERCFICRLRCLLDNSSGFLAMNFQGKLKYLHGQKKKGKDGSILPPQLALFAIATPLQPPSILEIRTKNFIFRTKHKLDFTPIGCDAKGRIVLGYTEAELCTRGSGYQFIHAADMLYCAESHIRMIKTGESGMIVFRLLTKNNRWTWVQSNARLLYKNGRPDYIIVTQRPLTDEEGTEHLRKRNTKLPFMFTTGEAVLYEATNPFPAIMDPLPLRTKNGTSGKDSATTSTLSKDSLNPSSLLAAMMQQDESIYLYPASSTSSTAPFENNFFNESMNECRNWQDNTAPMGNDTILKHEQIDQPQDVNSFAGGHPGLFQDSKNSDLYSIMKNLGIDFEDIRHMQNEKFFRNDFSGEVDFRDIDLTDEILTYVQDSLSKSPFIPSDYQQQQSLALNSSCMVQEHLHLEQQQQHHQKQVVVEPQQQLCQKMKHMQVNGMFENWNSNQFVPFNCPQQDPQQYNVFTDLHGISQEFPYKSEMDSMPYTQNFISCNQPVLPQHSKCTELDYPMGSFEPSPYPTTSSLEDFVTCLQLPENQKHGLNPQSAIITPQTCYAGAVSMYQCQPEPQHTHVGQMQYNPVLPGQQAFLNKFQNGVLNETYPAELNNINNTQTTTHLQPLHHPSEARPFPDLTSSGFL
# Where “and” joins values, the source holds several entries; their conditions need not be identical. Equal values may be shown once. For part of these data: This list holds what a sample rich in hits left over. Where a call stands in place of a potency, no number is given. Inconclusive results are not listed. The list shows a part of the results, in another mix than the full data. Calls of active or inactive are those of the source. Unless noted, calls come from the whole dose curve; as a rule, active = well fitted curve in the direction sought with a large enough effect in the repeat runs; inconclusive = weak or mixed curves; inactive = no such curve, though single readings can be large; an effect the other way counts as inactive or inconclusive.
# Columns and labels:
# [1] = target: Estrogen receptor (Homo sapiens) (UniProt P03372); assay: qHTS assay to identify small molecule agonists of the estrogen receptor alpha (ER-alpha) signaling pathway (AID 743075; calls by dose curve;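 note: HEK293 GripTite cells with ER-alpha and UAS-driven beta-lactamase reporter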)
# [2] = target: Estrogen receptor (Homo sapiens) (UniProt P03372); assay: qHTS assay to identify small molecule agonists of the estrogen receptor alpha (ER-alpha) signaling pathway using the BG1 cell line (AID 743079); note: nearly all actives have a fitted effect of over 20% in size
# [3] = target: Estrogen receptor (Homo sapiens) (UniProt P03372); assay: qHTS assay to identify small molecule antagonists of the estrogen receptor alpha (ER-alpha) signaling pathway using the BG1 cell line in the presence of 0.1 nM 17-beta-estradiol (AID 1259244); conditions: VM7Luc4E2 (BG1) ERE-luciferase, antagonist mode, 0.1 nM E2, 22 h; note: nearly all actives have a fitted effect of over 50% in size
# [4] = target: Estrogen receptor (Homo sapiens) (UniProt P03372); assay: qHTS assay to identify small molecule agonists of the estrogen receptor alpha (ER-alpha) signaling pathway in the presence of an antagonist (AID 1259383; calls by dose curve; note: top concentration of the series differs between compounds; nearly all actives have a fitted effect of over 15% in size)
# [5] = target: Thyrotropin-releasing hormone receptor (Homo sapiens) (UniProt P34981); assay: qHTS assay to identify small molecule antagonists of the thyrotropin-releasing hormone receptor (TRHR) signaling pathway (AID 1346877; active = well fitted inhibition curve with a large enough effect in the repeat runs, not every such curve was filed as active); conditions: TRHR-HEK293, TRH-induced calcium fluorescence, antagonist mode
# [6] = target: Estrogen receptor (Homo sapiens) (UniProt P03372); assay: qHTS assay to identify small molecule antagonists of the estrogen receptor alpha (ER-alpha) signaling pathway (AID 743069; active = well fitted curve in the direction sought with a large enough effect in the signal ratio in the repeat runs, not every such curve was filed as active; the % refers to the signal ratio)
# [7] = target: Estrogen receptor beta (Homo sapiens) (UniProt Q92731); assay: qHTS assay to identify small molecule antagonists of the estrogen receptor beta (ER-beta) signaling pathway (AID 1259378; active = well fitted inhibition curve with a large enough effect in the signal ratio in the repeat runs, not every such curve was filed as active; the % refers to the signal ratio)
# Procedure, shortened: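 ER-beta-UAS-bla HEK293T cells in 2% charcoal-stripped FBS medium treated with compound plus 1nM final 17-beta-estradiol for 16 hr at 37C. Beta-lactamase reporter read by FRET substrate fluorescence after 2 hours at room temperature.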
# [8] = target: Bile acid receptor (Homo sapiens) (UniProt Q96RI1); assay: qHTS assay to identify small molecule antagonists of the farnesoid-X-receptor (FXR) signaling pathway (AID 743217; active = well fitted inhibition curve with a large enough effect in the signal ratio in the repeat runs, not every such curve was filed as active; the % refers to the signal ratio); conditions: HEK293T FXR-UAS-bla, beta-lactamase ratio, CDCA-stimulated, 16 h; at 29.1 µM (top of the series)
# Procedure, shortened: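 Antagonist mode against 50 uM (final) chenodeoxycholic acid stimulation in FXR-bla HEK 293T cells, 16 h at 37 °C. Inhibition detected as reduced beta-lactamase activity via LiveBLAzer B/G FRET fluorescence after 2 h at room temperature.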
# [9] = target: Bile acid receptor (Homo sapiens) (UniProt Q96RI1); assay: qHTS assay to identify small molecule agonists of the farnesoid-X-receptor (FXR) signaling pathway (AID 743220; active = well fitted activation curve with a large enough effect in the signal ratio in the repeat runs, not every such curve was filed as active; the % refers to the signal ratio); conditions: HEK293T FXR-UAS-bla, beta-lactamase FRET ratio, 16 h; at 29.1 µM (top of the series)
# [10] = qHTS assay for small molecule agonists of the p53 signaling pathway (AID 651631; calls by dose curve; note: nearly all actives have a fitted effect of over 15% in size); conditions: HCT-116 p53RE-bla reporter, beta-lactamase FRET ratio, 16 h
# Procedure, shortened: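 HCT-116 cells carrying a beta-lactamase reporter under p53 response elements were dosed with compound for 16 h at 37 °C. LiveBLAzer B/G FRET substrate was then added for 2 h at room temperature, and fluorescence intensity was read to detect pathway agonism.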
# Aromatase (Homo sapiens) = Aromatase (Homo sapiens) (UniProt P11511); assay: qHTS assay to identify aromatase inhibitors (AID 743083); conditions: MCF-7 aro ERE, testosterone-driven ERE luciferase, 24 h; note: nearly all actives have a fitted effect of over 55% in size
# [11] = target: Aryl hydrocarbon receptor (Homo sapiens) (UniProt P35869); assay: qHTS assay to identify small molecule that activate the aryl hydrocarbon receptor (AhR) signaling pathway (AID 743085); conditions: HepG2 AhR-luc (HG2L7.5c1), luciferase, 24 h;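 note: HG2L7.5c1 human HepG2 liver cells with stably integrated DRE-driven firefly reporter; nearly all actives have a fitted effect of over 15% in size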
# [12] = Caspase-3/7 induction in HepG2 cells by small molecules, qHTS assay (AID 1346978); conditions: HepG2 caspase-3/7 activation, Caspase-Glo luminescence, 17 h; note: nearly all actives have a fitted effect of over 15% in size
# Procedure, shortened: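 Wild-type HepG2 cells, 2,000/well, settled 5 hr at 37 C and 5% CO2, then compound-treated for 17 hr; caspase-3/7 activity read by luminescent Caspase-Glo 3/7 after 30 min at room temperature.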
# [13] = target: Nuclear receptor subfamily 1 group I member 2 (Homo sapiens) (UniProt O75469); assay: CYP3A4 induction through human pregnane X receptor (PXR) by small molecules, qHTS assay (AID 1346984); note: nearly all actives have a fitted effect of over 40% in size
# Procedure, shortened: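 Steps: seed DPX-2 cells, 5 hr at 37C; pin-transfer compounds; 24 hr at 37C; add Luciferin-IPA (3uM final), 3 hr at 37C; add One-Glo, 30 min RT; read luminescence.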
# [14] = target: Nuclear receptor subfamily 1 group I member 2 (Homo sapiens) (UniProt O75469); assay: Human pregnane X receptor (PXR) activation by small molecules, qHTS assay (AID 1346985); note: nearly all actives have a fitted effect of over 40% in size
# [15] = target: Nuclear receptor subfamily 1 group I member 2 (Homo sapiens) (UniProt O75469); assay: Human pregnane X receptor (PXR) small molecule agonists, qHTS assay (AID 1346982); note: nearly all actives have a fitted effect of over 35% in size
# Procedure, shortened: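 Agonist mode qHTS: PXR-Luc HepG2 cells plated 5 hr before DMSO-dissolved compounds were pinned in, cultured 24 hr at 37 C, 5% CO2; ONE-Glo luminescence readout.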
structure (smiles),measurement,setting,value
CCCCCCCCCCCC,Potency,[1],inactive
same,Potency,[2],inactive
same,"activity change, negative = inhibition",[3]; at 92.4 µM (top of the series),inactive: 3.47%
same,Potency,[4],inactive
Oc1ccc(C2CNCCc3c2cc(O)c(O)c3Cl)cc1 (configuration not stated),"activity, negative = inhibition",[5]; at 23.6 µM (top of the series),inactive: 4.42%
CN1CCC[C@@H]1c1cccnc1,Potency,[6],inactive
same,Potency,[1],inactive
same,Potency,[2],inactive
same,"activity change, negative = inhibition",[3]; at 42.5 µM (top of the series),inactive: -3.69%
same,Potency,[4],inactive
Cc1ccc(S(=O)(=O)NCl)cc1,Potency,[7],inactive
CC[C@]1(O)C[C@@H]2CN(CCc3c([nH]c4ccccc34)[C@@](C(=O)OC)(c3cc4c(cc3OC)N(C)[C@H]3[C@@](O)(C(=O)OC)[C@H](OC(C)=O)[C@]5(CC)C=CCN6CC[C@]43[C@@H]65)C2)C1,Potency,[7],inactive
same,Potency,[4],inactive
NC[C@H]1O[C@H](O[C@H]2[C@H](O)[C@@H](O[C@H]3O[C@H](CO)[C@@H](O)[C@H](N)[C@H]3O)[C@H](N)C[C@@H]2N)[C@H](N)[C@@H](O)[C@@H]1O,"activity change, negative = inhibition",[8],inactive: -13.6%
same,activation,[9],inactive: 5.88%
same,Potency,[7],inactive
[Cl][Eu]([Cl])[Cl],Potency,[7],inactive
CC(=O)CCC(=O)O,Potency,[7],inactive
CC1(C)S[C@@H]2[C@H](NC(=O)[C@H](N)c3ccccc3)C(=O)N2[C@H]1C(=O)O,"activity, negative = inhibition",[5]; at 23.6 µM (top of the series),inactive: 1.49%
same,"activity, negative = inhibition",[5]; at 51.3 µM (top of the series),inactive: 0.009% and inactive: 4.34%
Cc1onc(-c2ccccc2Cl)c1C(=O)N[C@@H]1C(=O)N2[C@@H]1SC(C)(C)[C@@H]2C(=O)O,"activity, negative = inhibition",[5]; at 23.6 µM (top of the series),inactive: -15.3%
C[N+](C)(C)CCCCCCCCCC[N+](C)(C)C,Potency,[7],inactive
COc1ccc2cc([C@H](C)C(=O)O)ccc2c1,activation,[10]; at 34.7 µM (top of the series),inactive: -4.9%
same,activation,[10]; at 73.3 µM (top of the series),inactive: -1.24%
same,"activity, negative = inhibition",Aromatase (Homo sapiens); at 32.5 µM (top of the series),inactive: 3.72%
same,"activity, negative = inhibition",Aromatase (Homo sapiens); at 70.3 µM (top of the series),inactive: 0.857%
same,activation,[11]; at 32.5 µM (top of the series),inactive: 1.13%
same,activation,[11]; at 70.3 µM (top of the series),inactive: 0.233%
same,caspase activation,[12]; at 42.5 µM (top of the series),inactive: -5.5%
same,caspase activation,[12]; at 92.4 µM (top of the series),inactive: -6.52%
O=C(O)c1cn(C2CC2)c2cc(N3CCNCC3)c(F)cc2c1=O,activation,[11]; at 32.5 µM (top of the series),inactive: -1.47%
same,caspase activation,[12]; at 42.5 µM (top of the series),inactive: -1.01%
NNc1nncc2ccccc12,Potency,[13],inactive
same,Potency,[14],inactive
N[C@@H](CCC(=O)N[C@@H](CS)C(=O)NCC(=O)O)C(=O)O,Potency,[13],inactive
same,Potency,[14],inactive
CNCC[C@H](Oc1cccc2ccccc12)c1cccs1,Potency,[15],inactive
CCN1CCCC1CNC(=O)c1cc(S(N)(=O)=O)ccc1OC (configuration not stated),Potency,[15],inactive
O=C(NCCO[N+](=O)[O-])c1cccnc1,Potency,[15],inactive
same,Potency,[13],inactive
same,Potency,[14],inactive
CC[N+](C)(C)c1cccc(O)c1,Potency,[15],inactive
